Read-outs that look alike come from different tables or passages of the source.
Legend:
CYP1B1 = biological target: T1, CYP1B1 (Homo sapiens, UniProt Q16678); test: EROD assay in inducible CYP1B1 cell line; assay type: cell-based
T1 construct: expressed in transfected cells
T1 sequence (Q16678 1-543): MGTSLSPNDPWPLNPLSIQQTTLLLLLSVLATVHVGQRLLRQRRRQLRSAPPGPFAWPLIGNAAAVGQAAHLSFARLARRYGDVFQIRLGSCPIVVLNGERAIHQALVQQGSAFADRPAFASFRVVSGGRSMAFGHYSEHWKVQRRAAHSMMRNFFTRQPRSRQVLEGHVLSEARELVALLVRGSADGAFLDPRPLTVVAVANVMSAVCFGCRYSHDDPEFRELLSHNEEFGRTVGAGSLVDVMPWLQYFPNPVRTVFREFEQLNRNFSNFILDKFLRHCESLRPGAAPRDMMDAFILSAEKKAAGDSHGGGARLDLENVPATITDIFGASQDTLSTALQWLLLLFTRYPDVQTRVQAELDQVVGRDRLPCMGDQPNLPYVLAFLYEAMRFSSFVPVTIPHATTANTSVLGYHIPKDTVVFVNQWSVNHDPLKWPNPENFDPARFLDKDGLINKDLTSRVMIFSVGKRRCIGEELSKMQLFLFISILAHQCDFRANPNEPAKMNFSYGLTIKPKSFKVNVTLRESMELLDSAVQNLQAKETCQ

CYP1A1 = biological target: T2, CYP1A1 (Homo sapiens, UniProt P04798); test: EROD assay in CYP1A1 counter-screen cell line; assay type: cell-based
T2 construct: expressed in transfected cells
T2 sequence (P04798 1-512): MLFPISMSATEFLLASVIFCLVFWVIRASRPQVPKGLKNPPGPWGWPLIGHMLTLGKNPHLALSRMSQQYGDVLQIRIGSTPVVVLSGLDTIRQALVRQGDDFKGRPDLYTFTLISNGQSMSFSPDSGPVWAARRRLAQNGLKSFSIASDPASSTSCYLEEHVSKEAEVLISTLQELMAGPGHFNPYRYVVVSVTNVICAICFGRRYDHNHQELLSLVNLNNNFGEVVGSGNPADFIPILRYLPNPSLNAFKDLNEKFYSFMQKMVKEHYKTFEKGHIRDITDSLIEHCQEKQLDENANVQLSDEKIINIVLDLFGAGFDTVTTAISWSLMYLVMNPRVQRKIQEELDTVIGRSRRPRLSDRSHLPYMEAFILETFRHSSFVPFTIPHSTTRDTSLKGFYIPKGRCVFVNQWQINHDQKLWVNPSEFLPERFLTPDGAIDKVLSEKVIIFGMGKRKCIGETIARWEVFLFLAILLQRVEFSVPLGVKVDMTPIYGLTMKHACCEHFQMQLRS

Row | IC50 (CYP1B1; Table 1, read-out: CYP1B1 IC50) [nM] | IC50 (CYP1B1; Table 3, read-out: IC50 1B1) [nM] | IC50 (CYP1A1; Table 1, read-out: CYP1A1 IC50) [nM] | IC50 (CYP1A1; Table 3, read-out: IC50 1A1) [nM] | IC50 (CYP1B1; IC50 CYP1B1, Table 2, EROD assay) [nM] | SMILES
1 | 140 | 140 | 86 | 860 |  | O=c1cc(-c2ccccc2)oc2c1ccc1ccccc12 [ANF, reference compound]
2 |  |  |  |  | 5.5 | COc1ccc(-c2nc(-c3cccnc3)cs2)c(OC)c1 [GL661]

Reference: patent US20210246109A1, “POTENT AND SELECTIVE INHIBITORS OF CYTOCHROME P450” (University of Kentucky Research Foundation, priority 2020, published 2021)
